Entries after “also recorded” stand apart in the source; their conditions may differ.
B1: anhydro-fXa: Gla-domain containing fXa in which dehydroalanine replaces the active-site serine (SEQ ID NO: 20) (protein)
chain: ANSFLEEMKKGHLERECMEETCSYEEAREVFEDSDKTNEFWNKYKDGDQCETSPCQNQGKCKDGLGEYTCTCLEGFEGKNCELFTRKLCSLDNGDCDQFCHEEQNSVVCSCARGYTLADNGKACIPTGPYPCGKQTLERIVGGQECKDGECPWQALLINEENEGFCGGTILSEFYILTAAHCLYQAKRFKVRVGDRNTEQEEGGEAVHEVEVVIKHNRFTKETYDFDIAVLRLKTPITFRMNVAPACLPERDWAESTLMTQKTGIVSGFGRTHEKGRQSTRLKMLEVPYVDRNSCKLSSSFIITQNMFCAGYDTKQEDACQGDAGGPHVTRFKDTYFVTGIVSWGEGCARKGKYGIYTKVTAFLKWIDRSMKTRGLPKAKSHAPEVITSSPLK
modifications: dehydroalanine replaces active-site serine; MOD_RES 324 Dehydroalanine
B2: pd-Antidote: des-Gla anhydro fXa derivative having the amino acid residues of SEQ ID NO. 10 (protein)
chain: KDGDQCETSPCQNQGKCKDGLGEYTCTCLEGFEGKNCELFTRKLCSLDNGDCDQFCHEEQNSVVCSCARGYTLADNGKACIPTGPYPCGKQTLERIVGGQECKDGECPWQALLINEENEGFCGGTILSEFYILTAAHCLYQAKRFKVRVGDRNTEQEEGGEAVHEVEVVIKHNRFTKETYDFDIAVLRLKTPITFRMNVAPACLPERDWAESTLMTQKTGIVSGFGRTHEKGRQSTRLKMLEVPYVDRNSCKLSSSFIITQNMFCAGYDTKQEDACQGDAGGPHVTRFKDTYFVTGIVSWGEGCARKGKYGIYTKVTAFLKWIDRSMKTRGLPKAKSHAPEVITSSPLK
modifications: dehydroalanine at active-site serine; MOD_RES 280 Dehydroalanine

Legend:
thrombin generation = experiment: Thrombin generation assay in platelet poor plasma; format: biochemical, human; conditions: PPP
Method: PRP and PPP were prepared by spinning the anticoagulated blood at ˜100× gravity or 1000× gravity for 20 minutes, respectively, at room temperature. 75-100 microliter (uL) plasma was mixed with CaCl2) and Z-Gly-Gly-Arg-aminomethylcoumarin (Z-GGR-AMC, a thrombin fluorogenic substrate). Tissue factor (Innovin, Dade Behring) was added to initiate the generation of thrombin. For a typical experiment, the reaction mixture contained 15 millimolar (mM) Ca^2+, 100 micromolar (M) Z-GGR-AMC, and 0.1 nanomolar (nM) tissue factor (TF) (Innovin). Thrombin formation was monitored continuously at 37° C. by a fluorometric plate reader (Molecular Devices) measuring the relative fluorescence units (RFU). Inhibitor and antidote, when present, were pre-incubated with plasma for 20 minutes at room temperature before initiation of thrombin generation.

fXa = target: T1, fXa (Homo sapiens, UniProt P00742); experiment: fXa chromogenic activity assay: inhibition by fXa inhibitors and reversal by antidote; format: biochemical
T1 construct: purified active human plasma derived fXa (3 nM); from tissue; host or cells: human plasma

[1] = tested on: clot formation in human platelet poor plasma; experiment: Clotting prolongation assay, 96-well plate format (OD405 turbidity); format: biochemical; conditions: 563 nM antidote; enoxaparin 0.3125-1.25 U/mL; aPTT reagent
Method: Two clotting assay formats were used to test the effects of factor Xa inhibitors and the antidote on clotting prolongation. In the first format, a 96-well plate was used to measure multiple samples at the same time. In the second assay format, aPTT was measured with a conventional coagulation instrument (MLA Electra 800 automatic coagulation timer).
In the 96-well plate format method, human platelet poor plasma or platelet rich plasma was prepared similarly as procedures in Example 2. 75-100 μL plasma was recalcified with CaCl2), incubated at 37° C. for 3 minutes and clot formation was initiated by adding tissue factor (Innovin, Dade Behring) or an aPTT reagent (Actin FS, Dade Behring). Change of OD405 was monitored continuously by a plate reader (Molecular Devices). Clotting time was defined as the time (second) when the half maximal value of absorbance (OD405 nm) change was reached. Factor Xa inhibitor and antidote, when present, were pre-incubated with plasma at room temperature for 20 minutes before initiation of the reaction.
In FIG. 18, the effect of r-Antidote to reverse the inhibitory effect of LMWH enoxaparin (Sanofi-Aventis) was tested by turbidity changes in human plasma. Enoxaparin (0-1.25 U/mL) was incubated at 22° C. for 20 min with or without 508 nM r-Antidote. Turbidity changes were measured according to procedures described in Example 3. 508 nM r-Antidote substantially corrected (>75%) the inhibitory effect of 0.3125-1.25 U/mL Enoxaparin.
A turbidity assay was used to test the effect of fXa inhibitors and r-Antidote on prolongation of clotting times. In this format, a 96-well plate was used to measure multiple samples at the same time. Human platelet poor plasma was prepared as in Example 2. […] Change of OD405 was monitored continuously by a plate reader (Molecular Devices). Clotting time was defined as the time (seconds) for reaching the half maximal value for change in absorbance (OD405 nm). […]

thrombin = target: T2, thrombin (Homo sapiens, UniProt P00734); experiment: Thrombin chromogenic assay (S2288) with argatroban; format: biochemical; conditions: antidote up to 538 nM; thrombin 5 nM; argatroban 50 nM
T2 construct: purified human thrombin (5 nM), argatroban (50 nM)
Method: The effect of the antidote des-Gla anhydro-fXa (SEQ ID NO:10) on thrombin activity toward a chromogenic substrate S2288 (200 M) was measured similarly as before with or without Argatroban, a specific small molecule IIa inhibitor.
After incubation at room temperature for 20 min, an amidolytic substrate 52288 (200 uM) was added to the mixture and the rate of p-nitroanilide substrate cleavage was monitored by absorbance at 405 nm.

[2] = tested on: betrixaban anticoagulation (whole blood INR); experiment: In vivo mouse model, PK-PD of betrixaban with antidote; design: species or system C57Bl/6 mice
Method: 15 mg/kg was used for antidote treated group. A single intravenous (IV) injection of antidote (300 ug/200 μL) or vehicle (normal saline, 200 μL) was administered 5 minutes prior to the 1.5 hr. time point.
Blood samples (0.5 mL) were obtained in 50 μL trisodium citrate. Whole blood INR was measured using Hemochron Jr. cartridges (International Technidyne Corporation) per the manufacture's instructions.
15 mg/kg was used for antidote (300 μg/200 μL) treated group.
Vehicle (control_1) or r-Antidote (1 injection) was administered 5 min prior to the 1 hr. time point. […] Mouse blood samples were taken at 2 hr. for vehicle (control_2) and r-Antidote (2 injections) treated mice.

[3] = tested on: aPTT of pooled human plasma; experiment: aPTT human plasma clotting assay (MLA Electra 800 coagulation timer); format: biochemical
[4] = pd-Antidote treated mice, […] after 15 mg/kg betrixaban PO

Molecule	inhibition of plasma thrombin generation (thrombin generation; about 115 nM anhydro-fXa)	procoagulant (fXa chromogenic) activity compared with active fXa (fXa; anhydro-fXa alone)	reversal of fXa inhibition by betrixaban (fXa; purified system with active fXa and betrixaban)	effect on anticoagulant activity of enoxaparin [1]	effect on thrombin activity and its inhibition by argatroban (thrombin)	reversal of anticoagulant activity of betrixaban (thrombin generation) (thrombin generation; 680 nM antidote, varying betrixaban)	reduction of functional betrixaban / correction of whole blood INR ([2]; mice, betrixaban 15 mg/kg PO, single IV injection of antidote (300 ug))	% Correction, Mean [2, 4]	Expected INR, Mean [2, 4]	Measured INR, Mean ([2]; pd-Antidote treated mice, […] after 15 mg/kg betrixaban PO, 5 min after antidote injection)	antidote concentration for return of aPTT to near normal level ([3]; 400 nM betrixaban)	EC50 ([3]; 400 nM betrixaban, read-out: EC50 of the antidote (aPTT reversal))	effect on aPTT of control plasma ([3]; 2576 nM antidote alone)
B1	almost completely inhibited	negligible	reverses										
B2				significantly neutralized	does not detectably affect	complete reversion; also recorded: substantially complete restoration	> 50%	77.2%	4.0	1.9	higher than 1610 nM	~0.656 µM	no effect
